For 1 compound, IC50 results are on record in ChEMBL document CHEMBL4396900, “Extending Cross Metathesis To Identify Selective HDAC Inhibitors: Synthesis, Biological Activities, and Modeling” (ACS Med Chem Lett, 2019).

The chains behind the UniProt entries cited, without tags or fusion partners. Where a name states a change or a piece, a line headed by the entry shows the natural chain unless it says otherwise.
UniProt Q9UKV0: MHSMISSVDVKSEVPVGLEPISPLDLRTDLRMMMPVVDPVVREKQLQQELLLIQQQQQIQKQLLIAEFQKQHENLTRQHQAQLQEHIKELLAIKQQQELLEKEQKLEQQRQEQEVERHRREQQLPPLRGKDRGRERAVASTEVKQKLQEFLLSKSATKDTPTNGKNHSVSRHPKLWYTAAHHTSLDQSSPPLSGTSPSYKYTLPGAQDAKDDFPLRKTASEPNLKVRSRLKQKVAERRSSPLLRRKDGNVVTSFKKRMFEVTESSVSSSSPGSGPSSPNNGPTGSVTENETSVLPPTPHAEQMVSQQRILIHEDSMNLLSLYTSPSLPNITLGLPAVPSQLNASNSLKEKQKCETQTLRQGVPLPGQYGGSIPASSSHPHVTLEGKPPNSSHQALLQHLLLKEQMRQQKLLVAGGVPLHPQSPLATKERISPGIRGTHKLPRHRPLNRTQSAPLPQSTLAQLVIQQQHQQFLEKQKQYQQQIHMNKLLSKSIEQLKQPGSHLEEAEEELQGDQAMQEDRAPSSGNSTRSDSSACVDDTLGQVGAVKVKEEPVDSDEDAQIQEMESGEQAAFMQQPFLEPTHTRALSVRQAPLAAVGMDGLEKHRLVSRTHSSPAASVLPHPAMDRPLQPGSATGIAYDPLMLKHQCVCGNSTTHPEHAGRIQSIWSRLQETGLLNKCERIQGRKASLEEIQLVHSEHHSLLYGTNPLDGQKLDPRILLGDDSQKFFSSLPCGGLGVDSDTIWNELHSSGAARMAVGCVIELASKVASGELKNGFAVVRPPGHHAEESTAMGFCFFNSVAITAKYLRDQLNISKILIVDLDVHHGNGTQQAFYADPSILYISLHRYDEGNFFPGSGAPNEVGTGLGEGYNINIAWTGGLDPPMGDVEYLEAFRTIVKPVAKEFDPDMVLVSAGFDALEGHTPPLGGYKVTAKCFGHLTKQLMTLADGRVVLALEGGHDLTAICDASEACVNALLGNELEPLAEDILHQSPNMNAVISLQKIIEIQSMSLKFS
UniProt Q9UQL6: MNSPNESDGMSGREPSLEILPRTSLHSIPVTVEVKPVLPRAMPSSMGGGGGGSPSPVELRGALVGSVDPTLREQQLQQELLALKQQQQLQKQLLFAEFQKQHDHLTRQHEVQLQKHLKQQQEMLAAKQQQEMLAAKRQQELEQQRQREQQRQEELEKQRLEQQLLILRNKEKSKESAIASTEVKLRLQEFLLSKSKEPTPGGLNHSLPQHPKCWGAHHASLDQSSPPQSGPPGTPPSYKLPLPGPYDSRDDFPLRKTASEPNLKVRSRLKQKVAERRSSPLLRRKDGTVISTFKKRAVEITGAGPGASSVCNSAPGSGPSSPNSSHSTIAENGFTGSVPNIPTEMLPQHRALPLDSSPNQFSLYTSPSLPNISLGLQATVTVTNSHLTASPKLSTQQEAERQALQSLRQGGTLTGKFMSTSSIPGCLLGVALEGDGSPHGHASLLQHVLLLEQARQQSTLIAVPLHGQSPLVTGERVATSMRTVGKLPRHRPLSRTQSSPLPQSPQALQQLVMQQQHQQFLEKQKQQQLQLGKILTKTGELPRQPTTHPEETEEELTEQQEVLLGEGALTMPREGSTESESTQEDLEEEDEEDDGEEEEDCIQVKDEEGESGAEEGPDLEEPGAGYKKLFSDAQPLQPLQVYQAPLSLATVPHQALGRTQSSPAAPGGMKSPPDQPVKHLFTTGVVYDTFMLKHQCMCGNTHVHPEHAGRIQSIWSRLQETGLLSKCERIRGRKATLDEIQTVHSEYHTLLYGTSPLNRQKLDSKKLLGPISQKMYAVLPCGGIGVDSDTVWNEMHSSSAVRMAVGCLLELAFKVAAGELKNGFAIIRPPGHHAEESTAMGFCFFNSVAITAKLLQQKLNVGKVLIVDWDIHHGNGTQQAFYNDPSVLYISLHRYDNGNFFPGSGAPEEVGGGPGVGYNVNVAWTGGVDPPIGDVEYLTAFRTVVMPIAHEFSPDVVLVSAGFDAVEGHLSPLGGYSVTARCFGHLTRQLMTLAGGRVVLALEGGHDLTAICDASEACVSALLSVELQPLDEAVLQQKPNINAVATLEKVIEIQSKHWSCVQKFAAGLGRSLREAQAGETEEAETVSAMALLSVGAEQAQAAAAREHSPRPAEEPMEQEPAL

For assay [1], the target named is Histone deacetylase 9 (Homo sapiens, UniProt Q9UKV0). The assay is described as follows: Inhibition of human recombinant HDAC9 using fluorogenic HDAC substrate class 2a measured after 30 mins by fluorimetry assay.
In assay [2] the target is Histone deacetylase 5 (Homo sapiens, UniProt Q9UQL6). The assay can be described thus: Inhibition of human recombinant HDAC5 using fluorogenic HDAC substrate class 2a measured after 30 mins by fluorimetry assay.

The term IC50 denotes the concentration that inhibits the measured activity by half. In the case of `CC(/C=C/C(=O)NO)=C\[C@H](C)C(=O)c1ccc(N(C)C)cc1`, the results for the IC50 in assay [1] and in assay [2] were 5.1 µM and 1600 nM, respectively.
